High-throughput results: PubChem BioAssay, National Center for Advancing Translational Sciences (NCATS)
Shown are actives, neighbours in structure and some others; about 3.7% of the full set was active somewhere.
miR-21 reporter – miR-21 reporter, rising signal; Potency, µM (titrated, usually from 38.3 µM), without a hit: at the highest dose reporter change, positive = more light; AID 2288; 340,000 tested, under 10 active; HeLa miR-21 FLuc reporter, luciferase, 48 h; active = well fitted rising curve with a large enough effect; inconclusive = small, poorly fitted or top-dose-only effect; inactive = no such curve, though single readings can be large or run the other way;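 note: % of control where 0% means no effect; miR-21 action dims this reporter so a rising signal means less miR-21 action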
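Using DMEM plus 10% FBS, HeLa miR-21-FLuc cells are incubated with test compounds (final up to about 40uM) for 48 hours; firefly luciferase signal is then imaged following reagent-mediated lysis.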
Nrf2 ARE act – activators of Nrf2 (ARE) signaling; AREc32 ARE-luciferase reporter (MCF7-derived line), luminescence, 24 h; AID 624171; Potency, µM (top dose mostly 46.1 µM), without a hit: at the top dose activation, hits mostly activators; actives 0.31% (n = 410,000); also: potency is read from the fitted curve at half-maximal effect; % of control where 0% means no effect; nearly all actives have a fitted effect of over 65% in size
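Luminescent ARE reporter assay in AREc32_Fluc cells: overnight plating at 37 deg C, 24 hr compound incubation, Steady-Glo added, 30 min RT before reading.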
ClpP mod – qHTS Assay for Activators of ClpP | ATP-dependent Clp protease proteolytic subunit (Bacillus subtilis (strain 168)), P80244 | purified B. subtilis ClpP, FRET peptide cleavage, 20 min | Potency, µM (highest dose often 57.5 µM), inactives show at the top dose activity change, negative = active | actives 1.9% (n = 340,000) | AID 651965, 2013; active = well fitted falling curve with a large enough effect; inconclusive = small, poorly fitted or top-dose-only effect; inactive = no such curve, though single readings can be large or run the other way; also: potency is read from the fitted curve at half-maximal effect; the source files actives as falling curves though it sought activators and does not explain the sign; nearly all actives have a fitted effect of over 65% in size
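Purified B. subtilis ClpP, 10 microg/mL final in Tris/HCl pH8 with KCl, BSA, glycerol and Tween-20, cleaved an Abz/nitrotyrosine-quenched decapeptide. Fluorescence (ex 320, em 430) was read at 0 and 20 min at room temperature. Delta was normalized to 5.8 microM ADEP and DMSO/no-enzyme controls.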
p53 reactivator – mutant p53 re-activation in reporter cells; H1299 p53-A138V BP100-luciferase reporter, luminescence, 24 h; Potency, µM (top dose mostly 92.2 µM), without a hit: top-dose activity change, positive = activation, usual class: activators; actives 0.063% (n = 320,000); also: potency is read from the fitted curve at half-maximal effect; % of control where 0% means no effect; nearly all actives have a fitted effect of over 45% in size
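p53-null H1299 cells stably carrying temperature-sensitive p53-A138V and a BP100-luciferase reporter were pinned with compounds (4-point, 1:5 series) and held 24 hrs at 37 deg C. Luminescence was read 10 min after detection reagent.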
A549 tox-1 – counter-screen for Nrf2 inhibitors: cytotoxicity in A549 cells | AID 504648 | actives 0.16% (n = 390,000) | A549 ARE-Fluc cells, CellTiter-Fluor viability, 18-24 h | Potency, µM (doses to about 46 µM), inactives show top-dose activity change, negative = cytotoxicity, actives largely listed as inhibitors; also: potency is read from the fitted curve at half-maximal effect; % is scaled to controls: 0 for no effect and ±100 for the full control effect
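A549 ARE-Fluc cells in 5% FBS OPTI-MEM, 5000 cells/well, rested 2 h then exposed to compounds in concentration-response for 18-24 h at 37 °C. Viability by CellTiter-Fluor fluorescence (Ex 405/Em 525) after 30 min; luciferase luminescence (BugLite, 15 min, RT) read afterwards.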
Nrf2 block – Nrf2 pathway inhibition; actives 2.1% (n = 360,000); Potency, µM (highest dose often 46 µM), for inactives: at the top dose activity change, negative = inhibition, hits mostly inhibitors; A549 ARE-Fluc reporter, luciferase luminescence, 18-24 h; also: potency is read from the fitted curve at half-maximal effect; % is scaled to controls: 0 for no effect and ±100 for the full control effect; nearly all actives have a fitted effect of over 60% in size
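A549 ARE_Fluc cells (5000/well, 5% FBS OPTI-MEM) pre-incubated 2 h, then treated with compounds 18-24 h at 37C/5% CO2 in concentration-response. CellTiter-Fluor viability read first; BugLite luciferase luminescence after 15 min at room temperature gives Nrf2 activity.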
FLuc enzyme inh – counter-screen for Nrf2 inhibitors: firefly luciferase enzyme inhibition; Potency, µM (top dose mostly 57.5 µM), inactives show at the top dose activity change, negative = inhibition, usual class: inhibitors; purified firefly luciferase, luminescence inhibition; actives 4% (n = 1,400); AID 720522; shares compounds with Nrf2 block; also: potency is read from the fitted curve at half-maximal effect; % is scaled to controls: 0 for no effect and ±100 for the full control effect; nearly all actives have a fitted effect of over 65% in size
A549 tox-2 – counter-screen for Nrf2 inhibitors: cytotoxicity in A549 ARE cells; Potency, µM (doses to about 46.1 µM), for inactives: at the highest dose activity change, negative = cytotoxicity, most hits filed as inhibitors; shares compounds with Nrf2 block; AID 720523; A549 ARE-Fluc cells, cytotoxicity counterscreen; actives 2% (n = 1,400);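 also: potency is read from the fitted curve at half-maximal effect; cells exposed to compounds for 18 to 24 hours; % is scaled to controls: 0 for no effect and ±100 for the full control effect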
ARE-Fluc inh – reduces Nrf2 ARE reporter signal in A549 cells. shares compounds with Nrf2 block. actives 74% (n = 1,400). Potency, µM (doses to about 46.1 µM), inactives show at the top dose activity change, negative = inhibition, most hits filed as inhibitors. A549 ARE-firefly luciferase reporter, luminescence; also: potency is read from the fitted curve at half-maximal effect; % is scaled to controls: 0 for no effect and ±100 for the full control effect; nearly all actives have a fitted effect of over 65% in size
Starred values were filed as active, the others as inactive; ? = inconclusive; nt = not tested or not shown; [ ] = another dose, or the depositor's remark. Unless noted, calls follow the shape of the dose curve; as a rule, active = well fitted curve in the direction sought with a large enough effect; inconclusive = small, poorly fitted or top-dose-only effect, or another doubt; inactive = no such curve, though single readings can be large; an effect the other way counts as inactive or inconclusive.

SMILES	miR-21 reporter	Nrf2 ARE act	ClpP mod	p53 reactivator	A549 tox-1	Nrf2 block	FLuc enzyme inh	A549 tox-2	ARE-Fluc inh
COc1ccc(-c2csc(NC(=O)Cc3ccccc3)n2)cc1OC	14%	-1%	-1%	-1%	-9%	2.6µM*	-25%	-3%	nt
O=C(NCCc1ccccc1)c1ccc2c(c1)nc1n2CCOC1	-8%	-4%	0%	nt	2%	nt	nt	nt	nt
Cc1nn(C)c(C)c1CN(Cc1nc(CCC(C)C)no1)C(C)C	15%	0%	-2%	-1%	-9%	1.3µM*	-2%	-2%	?
Cn1c(=O)oc2cc(S(=O)(=O)CCC(=O)N3CCN(c4cccc(Cl)c4)CC3)ccc21	1%	-1%	-1%	nt	1%	-6%	nt	nt	nt
COc1ccc(NC(=O)c2c(-c3ccc(C)cc3)nnc3ccccc23)cc1Cl	-18%	4%	1%	nt	-6%	12%	nt	nt	nt
O=c1[nH]c(=O)n([C@@H]2O[C@H](CO)[C@@H](O)[C@H]2O)cc1F	nt	nt	-2%	nt	nt	nt	0%	?	46%
O=c1[nH]c(=O)n(C2OC(CO)C(O)C2O)cc1F (stereo not given)	nt	0%	1%	nt	?	?	2%	?	0.15µM*
Nc1nc(=O)n(C2OC(CO)C(O)C2O)cc1F (stereo not given)	nt	1%	0%	nt	nt	nt	nt	nt	nt
Cc1cccc(Cn2nc(C)n3c(cc4cc(C)ccc43)c2=O)c1	5%	0%	-2%	nt	-1%	20%	nt	nt	nt
CCOc1ccc(S(=O)(=O)N2CCN(c3ccccc3)CC2)cc1C(N)=O	-8%	0%	2%	nt	9%	?	nt	nt	nt
CC[n+]1c(/C=C/N(C)c2ccccc2)oc2ccc(F)cc21	?	7%	-1%	5%	-23%	6.5µM*	2%	-13%	5.8µM*
Cc1ccc(-c2nc(N)n(C(=O)c3cccnc3)n2)cc1	-14%	-1%	-9%	9%	-15%	1%	nt	nt	nt
Cc1ccc(C(=O)n2nc(-c3cccnc3)nc2N)cc1	-3%	-3%	-5%	0%	-18%	1.3µM*	-1%	6%	4.6µM*
CCc1ccc(NC(=O)C2CCN(S(=O)(=O)c3cccs3)CC2)cc1	12%	5%	nt	3%	-26%	3.7µM*	-4%	-8%	9.2µM*
COc1ccc(S(=O)(=O)N2CCC(C(=O)Nc3ccc(Oc4ccccc4)cc3)CC2)cc1	1%	0%	2%	nt	0%	?	-1%	-14%	?
Cc1ccc(-c2csc(NC(=O)C3CCN(S(=O)(=O)c4cccs4)CC3)n2)cc1	27%	3%	1%	-7%	-1%	?	nt	nt	nt
COc1ccc(NC(=O)C2CCN(S(=O)(=O)c3ccccc3)CC2)cc1	4%	-1%	1%	-12%	-6%	-12%	nt	nt	nt
O=C(Nc1nc(-c2ccc3ccccc3c2)cs1)C1CCN(S(=O)(=O)c2cccs2)CC1	-2%	0%	-14%	5%	-10%	5.2µM*	1%	-1%	?
CCOc1ccc(CNC(=O)c2ccccc2NC(=O)c2nsc3ccccc23)cc1	-4%	?	4%	nt	4%	nt	nt	nt	nt
COc1ccc(C)c2sc(N(Cc3cccnc3)C(=O)COc3ccccc3)nc12	-2%	4%	-4%	nt	-1%	nt	nt	nt	nt
Cc1cc(=O)[nH]c(N/N=C/c2cc(C)n(CC(F)(F)F)c2C)n1	13%	1%	-11%	9%	-12%	4.1µM*	-7%	-20%	1.5µM*
Cc1cc(=O)[nH]c(N/N=C/c2ccccc2C(F)(F)F)n1	-2%	3%	nt	3%	-2%	13%	nt	nt	nt
CCOc1ccc(NC(=O)c2ccncc2)cc1	-26%	0%	1%	18%	-3%	3%	nt	nt	nt
CCOc1ccc2c(c1)C(=NNC(=O)c1ccncc1)c1cc(OCC)ccc1-2	-19%	3%	nt	40µM*	-18%	5.8µM*	?	?	5.2µM*
COC(=O)CCn1nnc(-c2cccs2)n1	-9%	2%	-1%	23%	-4%	4%	nt	nt	nt
COC(=O)CCn1nnc(-c2ccc(C(C)C)cc2)n1	26%	-2%	0%	-14%	-1%	0.52µM*	11µM*	-1%	0.58µM*
COc1ccc2[nH]c3c(C)c4ccncc4c(C)c3c2c1	?	-3%	-5%	9%	?	8.2µM*	-26%	?	2.6µM*
Cc1c2ccncc2cc2c1[nH]c1ccccc12	nt	-1%	nt	nt	?	-24%	nt	nt	nt
COc1cc(OC)cc(-c2cc3nc(C)c(CCC(=O)O)c(C)n3n2)c1	?	-5%	5%	-23%	0%	1.5µM*	11µM*	4%	2.6µM*
COc1ccc(CCNC(=O)CCc2c(C)nc3cc(-c4ccccc4)nn3c2C)cc1OC	?	-3%	-28%	nt	-12%	?	nt	nt	nt
CC(C)NC(=O)c1cc(C2CCCCN2C(=O)c2ccccc2)on1 (stereo not given)	nt	-1%[9.22 µM]	0%	nt	nt	nt	nt	nt	nt
Cc1ccc(S(=O)(=O)N2CCN(c3ncnc4sccc34)CC2)cc1C	nt	4%	1%	-13%	-11%	?	nt	nt	nt
O=S(=O)(c1ccc2c(c1)OCCO2)N1CCN(c2ncnc3sccc23)CC1	15%	9%	nt	-4%	-29%	2.3µM*	0%	2%	nt
Cc1cc(C(=O)COC(=O)c2ccc(N)c([N+](=O)[O-])c2)c(C)n1-c1ccc2c(c1)OCO2	7%	6%	-1%	-2%	-11%	5.8µM*	-6%	-4%	?
COc1ccc(CN(C)C(=O)/C=C/c2ccc(S(=O)(=O)N3CCCCCC3)cc2)cc1	nt	2%	-1%	-11%	-15%	9.2µM*	-12%	-18%	?
COc1ccccc1CCNC(=O)Cc1c(C)c2cc3c(C(C)(C)C)coc3c(C)c2oc1=O	-1%	0%	-13%	nt	9%	19%	nt	nt	nt

Reprinted at random: 4 compounds from above.
SMILES	miR-21 reporter	Nrf2 ARE act	ClpP mod	p53 reactivator	A549 tox-1	Nrf2 block	FLuc enzyme inh	A549 tox-2	ARE-Fluc inh
O=S(=O)(c1ccc2c(c1)OCCO2)N1CCN(c2ncnc3sccc23)CC1	15%	9%	nt	-4%	-29%	2.3µM*	0%	2%	nt
COc1ccccc1CCNC(=O)Cc1c(C)c2cc3c(C(C)(C)C)coc3c(C)c2oc1=O	-1%	0%	-13%	nt	9%	19%	nt	nt	nt
Cc1ccc(S(=O)(=O)N2CCN(c3ncnc4sccc34)CC2)cc1C	nt	4%	1%	-13%	-11%	?	nt	nt	nt
Cc1cc(C(=O)COC(=O)c2ccc(N)c([N+](=O)[O-])c2)c(C)n1-c1ccc2c(c1)OCO2	7%	6%	-1%	-2%	-11%	5.8µM*	-6%	-4%	?
